Yeast mating assay B: variants of the scFv Ab-14

Values reported by Li et al. 2023, doi:10.1038/s41467-023-39022-2 (FLAb copy).

Antigen: PDVDLGDISGINAS, a 14-residue peptide of the SARS-CoV-2 spike HR2 region.

Parent scFv Ab-14: VH joined to VL by a (GGGGS)3 linker. Changes lie in the light chain CDRs alone.
VH: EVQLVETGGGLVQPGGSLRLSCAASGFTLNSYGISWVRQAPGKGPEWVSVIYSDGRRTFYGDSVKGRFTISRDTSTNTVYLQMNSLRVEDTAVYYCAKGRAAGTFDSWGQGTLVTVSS
VL: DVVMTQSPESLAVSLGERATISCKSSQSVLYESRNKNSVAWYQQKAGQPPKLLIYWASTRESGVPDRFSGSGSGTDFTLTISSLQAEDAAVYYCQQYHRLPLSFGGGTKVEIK

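Phage display of a naive human antibody library on the peptide gave the parent. This is the validation round: designs drawn from the data on random variants, tested in the same kind of assay. Several design methods are mixed in this list. The assay is AlphaSeq: two haploid yeast populations carry antibody and antigen on their surface. Mating (16 h, 30 °C) was followed by selection of diploids and sequencing of their barcodes. Each replicate has its own calibration line, from reference interactions of the BCL2 family. Mating was done six times.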

The parent's light chain CDRs are KSSQSVLYESRNKNSVA, WASTRES, QQYHRLPLS; each variant's own CDRs replace them letter for letter. This list holds designs with more than six substitutions. Kd is apparent (estimated from mating counts) and averaged on the log scale over replicates with a signal. Smaller is tighter. A pair that was not seen in any replicate is written "nd"; this usually means weak binding, but a binder can also be missed. The authors' rule: three or more of the six replicates give a measured affinity, fewer mean a poor binder. Values of this round are not directly comparable with the first-round values of the same sequences. Three control strains display no target. For all light chain designs, 4% of the pairings with them gave a signal, with a median of 430 nM and one signal in twenty below 38 nM, so weak values seen in few replicates may be background. Of ten entries with the parent sequence, four were seen in most replicates (averages 2.2 nM to 240 nM), three in one and three in none, so single entries are noisy.

With NFSQMVLTGMTLRNSVA, HASTREE, QQYHRLPLI the result was 8.8 nM (5 of 6 replicates).
With KISQMFNVGTKNTNSLA, EMNTRGS, QDYHRLPLS the result was 2.3 nM (6 of 6 replicates).
With TISTSMRYESSLKNAIA, NAQTREY, QQYHRLPIS the result was 6.4 nM (6 of 6 replicates).
With HLGGTMTWESHAKNSVA, QSNTRAE, QQYHRLPLS the result was 1.2 nM (6 of 6 replicates).
With KLMTSDLYESRMVNAVA, DASTRMD, QQYHRLPLS the result was 3.2 nM (6 of 6 replicates).
With HITYGMMVAGRHSSSIA, QAEERAK, QQYDRLPLI the result was 15 nM (6 of 6 replicates).
With KLLQTVFNGRRNRNNVA, HMTMRED, QQYFRLPLS the result was 510 nM (2 of 6 replicates).
With KLIQSVAMSSRNKDSIA, DNSTREN, QQYHRLPLS the result was 7.7 nM (6 of 6 replicates).
With KLIQSVAMSTRNKDSIA, DNSTRES, QQYHRLPLS the result was 71 nM (6 of 6 replicates).
With ILSQSVLMGSHLKNSVA, QASTRFE, QQYHRLPLS the result was 8.0 nM (6 of 6 replicates).
With KIGMVTNGISFSKNSVA, EQSTREN, QQYDRLPLS the result was 37 nM (6 of 6 replicates).
With KVQYSMDYESRNKNSVA, EASDRES, QDYHRLPLS the result was 9.7 nM (6 of 6 replicates).
With QIQEESEVGYKDKNSMA, DSECKAA, QQYFQLPLM the result was 3.2 nM (6 of 6 replicates).
With HMSALTLGGMRMRNSVA, QMTTREN, QQYDRLPLT the result was 7.2 nM (6 of 6 replicates).
With KLPQSAEYQSRNKNSVA, SASTREA, QQYHRLPLS the result was 1.0 nM (6 of 6 replicates).
With KLIQSVAMSSRNKDSIA, DNSTRYS, QQYHRLPLS the result was 15 nM (6 of 6 replicates).
With MIEIIPDGYMEMRSNVA, DGSLVRM, QQYARLPLM the result was nd (0 of 6 replicates).
With QFDLFENYQGMQNAAIA, GATNRHT, QQYQKLPLS the result was 2.1 nM (6 of 6 replicates).
With ILSQSVLMGMHTKNSVA, QATMRFN, QQYHRLPLM the result was 92 nM (4 of 6 replicates).
With KLSMLVDYMSATHSSVA, QTSTREE, QQYHRLPLS the result was 3.1 nM (6 of 6 replicates).
With DVHALMNHSSDLMQSIA, DEECRDA, QQYERLPLS the result was 240 nM (6 of 6 replicates).
With QIYQAMHTLMQQKNNVA, DVTNRTK, QQYFRLPLS the result was 4.0 nM (6 of 6 replicates).
With KISQMTRVGSTHHNSIA, EEATRAK, QQYHRLPLF the result was 190 nM (5 of 6 replicates).
With SISGFMKSLSAHINSVA, DMTNREN, QQYDRLPLS the result was 5.2 nM (6 of 6 replicates).
With TITGEQNMSTQGNWSIA, QAEQKVH, QQYDRLPLA the result was 110 nM (5 of 6 replicates).
With MVNQHDEGFKGVKDAIA, NAELREG, QQYGRLPLS the result was 1.4 nM (6 of 6 replicates).
With QMTHPEESFQNNQRSIA, NASASLD, QQYAQLPLM the result was 14 nM (6 of 6 replicates).
With TLSQMWGMESHHKNNVA, QESTREK, QQYFRLPIS the result was 3.1 nM (6 of 6 replicates).
With MLSQMTGLGMKVSNSVA, QGSMRFN, QQYHRLPLI the result was 12 nM (6 of 6 replicates).
With TLYGLSMSMSKNKNNVA, EMSTREK, QQYDRLPLQ the result was 1.7 nM (6 of 6 replicates).
With KISQMVTYESTWHNAIA, QTSEREQ, QQYHRLPLS the result was 17 nM (6 of 6 replicates).
With MSYGGDMLESVTRNSVA, NAETRED, QDYHRLPLS the result was 10 nM (6 of 6 replicates).
With KLVQSELYESRVKNNVA, AASQRES, QQYHRLPLS the result was 2.3 nM (6 of 6 replicates).
With NISYLQGESTNSVNNVA, QTSKRAP, QYYQRLPLC the result was 5.2 nM (6 of 6 replicates).
With AIAGTLHFNQSGGSNVA, EVQMREQ, QQYFRLPLG the result was 18 nM (6 of 6 replicates).
With KVQYQLAYSQAHTNNIA, DASVVCA, QQYQRLPIG the result was 7.5 nM (6 of 6 replicates).
With KVSMLHWYEQRNKNSVA, EASTREQ, QQYHRLPLS the result was 2.1 nM (6 of 6 replicates).
With MISDLMLYGSRAKNPIA, NAETREY, QQYHRLPLE the result was 2.7 nM (6 of 6 replicates).
With KIGSMTNGEKFHSNSVA, QTSTREE, QQYHRLPLS the result was 2.7 nM (6 of 6 replicates).
With HVMHEQLDYKNYENNIA, HESQRLY, QQYSQLPLS the result was 15 nM (6 of 6 replicates).
With RVQLNSGHIDMHWYSIA, SASIRAD, QQYFRLPLA the result was 9.7 nM (6 of 6 replicates).
With MISQSFLIGMKAKNSVA, QTNTREH, QQYDRLPLI the result was 3.0 nM (6 of 6 replicates).
With TISQLHNMGTFAINSVA, QAELRND, QQYDRLPLT the result was 54 nM (5 of 6 replicates).
With HIGDLIMVASRNKNSVA, DESTRPD, QQYHRLPLS the result was 1.5 nM (6 of 6 replicates).
With NLMYLEENSLIGASAIA, DVSIAVM, QQYHRLPLA the result was 47 nM (6 of 6 replicates).
With MISPSFMVESRLKNSVA, QTSTRES, QQYDRLPLS the result was 3.1 nM (6 of 6 replicates).
With MITGSMENEWSNKNPVA, SATCKAP, QQYFRLPLM the result was 8.4 nM (6 of 6 replicates).
With QLLMATMQEGYNRNSVA, HAETRED, QSYHRLPLS the result was 13 nM (6 of 6 replicates).

Excerpt, the first 5 entries:

{"CDR-L1": "NFSQMVLTGMTLRNSVA", "CDR-L2": "HASTREE", "CDR-L3": "QQYHRLPLI", "Kd (apparent)": "8.8 nM", "seen in": "5/6"}
{"CDR-L1": "KISQMFNVGTKNTNSLA", "CDR-L2": "EMNTRGS", "CDR-L3": "QDYHRLPLS", "Kd (apparent)": "2.3 nM", "seen in": "6/6"}
{"CDR-L1": "TISTSMRYESSLKNAIA", "CDR-L2": "NAQTREY", "CDR-L3": "QQYHRLPIS", "Kd (apparent)": "6.4 nM", "seen in": "6/6"}
{"CDR-L1": "HLGGTMTWESHAKNSVA", "CDR-L2": "QSNTRAE", "CDR-L3": "QQYHRLPLS", "Kd (apparent)": "1.2 nM", "seen in": "6/6"}
{"CDR-L1": "KLMTSDLYESRMVNAVA", "CDR-L2": "DASTRMD", "CDR-L3": "QQYHRLPLS", "Kd (apparent)": "3.2 nM", "seen in": "6/6"}